Data reported in patent US8697095B1, “Inhibition of replication of oncogenic herpesviruses” (priority 2004, dated 2014).

Test system: KSHV

In the case of `Cc1c(C(=O)NN2CCCCC2)nn(-c2ccc(Cl)cc2Cl)c1-c1ccc(Cl)cc1` [SR141716A], the “Effect on spontaneous KSHV reactivation” value (BCBL-1, without THC) is reported as “no effect”, the “Reversal of inhibition of linear DNA synthesis by THC” value (both antagonists, 1.25 μg/ml THC) is reported as “reversed” and the “Reversal of THC inhibition of KSHV DNA synthesis” value (single receptor antagonist) is reported as “not reversed”.
